We go through 3 molecules from PubChem BioAssay AID1894 (NMMLSC, 2009).

The chains behind the UniProt entries cited, without tags or fusion partners.
UniProt Q99759, whole entry: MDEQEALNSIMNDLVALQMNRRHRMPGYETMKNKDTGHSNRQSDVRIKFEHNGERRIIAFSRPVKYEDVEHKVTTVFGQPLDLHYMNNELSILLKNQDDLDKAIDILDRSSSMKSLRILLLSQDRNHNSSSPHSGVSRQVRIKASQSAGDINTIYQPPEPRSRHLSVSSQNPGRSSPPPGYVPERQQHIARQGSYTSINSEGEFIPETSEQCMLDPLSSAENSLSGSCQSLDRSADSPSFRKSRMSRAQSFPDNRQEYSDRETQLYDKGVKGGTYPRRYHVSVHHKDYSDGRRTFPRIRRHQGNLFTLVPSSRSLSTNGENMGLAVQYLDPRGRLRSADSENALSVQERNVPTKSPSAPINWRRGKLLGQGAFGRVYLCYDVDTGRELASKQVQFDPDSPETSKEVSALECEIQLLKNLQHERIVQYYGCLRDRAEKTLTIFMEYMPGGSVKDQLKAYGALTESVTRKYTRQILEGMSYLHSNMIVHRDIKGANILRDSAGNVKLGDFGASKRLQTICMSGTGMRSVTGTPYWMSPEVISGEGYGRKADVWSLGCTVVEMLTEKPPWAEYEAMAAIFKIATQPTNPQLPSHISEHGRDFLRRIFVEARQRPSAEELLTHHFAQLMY

SMILES strings stand for the structures. This is a selection; strong and weak results do not stand in their true shares. The source made the active and inactive calls.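 The calls were made as follows: active = binding response below 72% of control, or above a set upper limit, though filed actives all read lower; inactive = the rest.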

In this test the target is Mitogen-activated protein kinase kinase kinase 3 (Homo sapiens) (UniProt Q99759). The test is described as follows: MEKK3 wild-type PB1 binding to MEK5, inhibitors, confirmation, biochemical, bead multiplex flow cytometry, single concentration, wildtype (AID 1894).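 Also: 100% = DMSO only wells and 0% = binding blocked by excess unlabeled MEK5; lower values mean stronger disruption of MEK5 binding to MEKK3.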 Conditions: Alexa488-MEK5 binding to MEKK3, at 10 µM, hits give low values. (In general: A flow cytometer gives signals particle by particle.)
Regarding `COc1ccccc1OP(C)(=O)Nc1c(C)cccc1C` (stereo not drawn), the binding response (% of control) is inactive: 103%.

Regarding `CP(=O)(Nc1ccc(Cl)cc1)Oc1ccc(F)cc1` (stereo not drawn), the binding response (% of control) was inactive: 103%. The value for `CCN(CC)CCCOC(=O)C(O)(c1ccccc1)C1CCCCC1` (stereo not drawn) was inactive: 103%.
